Results on one compound are retold here after PubChem BioAssay AID435000 (NMMLSC, 2010).

The nature of the test: yeast superoxide dye artefact check – S. cerevisiae BY4741, flow cytometry, artefact control for yeast caloric restriction mimetic project (AID 435000).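 Further: percent of the mean fluorescence averaged over all compound wells on the plate; lower means stronger quenching of DHE signal or ROS scavenging.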 The note with it: S. cerevisiae BY4741, DHE fluorescence, at 10 µM, stronger effect = lower value. In general terms: In flow cytometry, cells or beads pass a laser one at a time.

Only a part is listed here, and it is no random draw. Some tests of the compounds listed are not included; inactive here does not mean inactive elsewhere. Active and inactive are the calls of the source.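 How the source made its calls: active means fluorescence response below 15%; inactive means the rest.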

For the compound `COc1cc(C(=O)NCC2(N(C)C)CCCCC2)c([N+](=O)[O-])cc1OC`, the fluorescence response was inactive: 97%.
